Antibody variant affinities, Ab-14 heavy chain, assay B

From the AlphaSeq antibody data of Li et al. 2023 (doi:10.1038/s41467-023-39022-2), copy in the FLAb collection.

Target peptide (SARS-CoV-2 spike, HR2 region): PDVDLGDISGINAS

Parent scFv Ab-14: VH joined to VL by the linker GGGGSGGGGSGGGGS. Changes lie in the heavy chain CDRs alone.
VH: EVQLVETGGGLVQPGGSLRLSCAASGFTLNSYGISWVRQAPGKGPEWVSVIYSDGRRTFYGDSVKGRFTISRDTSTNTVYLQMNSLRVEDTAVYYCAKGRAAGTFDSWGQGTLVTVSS
VL: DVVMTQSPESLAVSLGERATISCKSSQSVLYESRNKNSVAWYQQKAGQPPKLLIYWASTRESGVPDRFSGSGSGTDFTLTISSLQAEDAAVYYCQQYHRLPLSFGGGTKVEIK

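This is the validation round: designs drawn from the data on random variants, tested in the same kind of assay. Several design methods are mixed in this list. In AlphaSeq, yeast of one mating type display the scFv and yeast of the other type display the target. Pairs that bind mate more often; barcode pairs of the diploids are counted by sequencing. The ratio of observed to expected reads was calibrated, replicate by replicate, on BCL2-family standards whose Kd was known from biolayer interferometry. Each pool was mated in six replicate cultures.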

Each variant is given by its three heavy chain CDRs, as the data file delimits them; those of the parent are GFTLNSYGIS, VIYSDGRRTFYGDSVK, GRAAGTFDS.
This list holds designs with at most six substitutions.
Each Kd is an estimate from the mating assay, the geometric mean of the replicates in which the pair was seen; lower is stronger.
Where no diploid with the target was found in any replicate, the entry reads "nd": below detection, most likely a poor binder, though not proof of it.

CDR-H1,CDR-H2,CDR-H3,apparent Kd,seen in
GFTLDSYGIS,VIYSDGRRTFYADSVK,GKAAGTFDS,3.2 nM,6/6
GFDLNSYGIS,VIYSDGRRTFYGDSVK,GQAAGTWDG,nd,0/6
GFTLNSYGIS,VIYSDGRRTFYSDSVK,GREAGTFDT,1.1 nM,6/6
GFQLNEYGIS,VIYSDGRRTFYGDQVK,GQAAGTFDK,5.9 nM,6/6
GFTLNEYGIS,VIYSDGRRTMYGDFVK,GRAAGTFDS,15 nM,6/6
GFELNSYGIS,VIYADGRRTFYGDSVK,GQAAGTFDM,570 pM,6/6
GFDLNSYGIS,VIYSDGRRTFYGDSVK,GRTAGTFDI,1.2 nM,6/6
GFDLNEYGIS,VIYADGRRTFYSDSVK,GTAAGTFDI,400 pM,6/6
GFTINSYGIS,VIYSWGRRTFYGDSVK,GRAAGTFDS,nd,0/6
GFTLNSYGIS,VIYSDGRRTFYGDSVK,GRAAGQFDS,nd,0/6
GFTLQSYGIS,VIYSDGRRTSYGDSVK,GSAAGTFDK,27 nM,4/6
GFTLNSFGIS,VIYSDGRRTQYGDSVK,GRAAGTFDS,nd,0/6
GFNLNSYGIS,VIYSDGRRTFYGDDVK,GQTAGTFDS,2.3 nM,6/6
GFNLNSYGIS,VIYSDGRRTFYADSVK,GKAAGTFDS,1.7 nM,6/6
GFTMNEYGIS,VIYSDGRRTFYGDSVK,GRAAGTFTS,nd,0/6
GFTLNSYGIS,VIYSDGRRTFYGDSVK,GFAAGTFDQ,480 nM,1/6
GFSLNSYGIS,VIYSDGRRTFYGDQVK,GNVAGTFDS,910 pM,6/6
GFSLNDYGIS,VIYSDGRRTFYHDSVK,GRVAGTFDS,210 pM,6/6
SFDLNSYGIS,VIYSDGRRTAYGDSVK,GRQAGTFDS,4.3 nM,6/6
GFELNSYGIS,VIYSDGRRTFYGDSVK,GRHAGTFDT,50 nM,4/6
HFTLNEYGIS,VIYSDGRRTFYGDSVK,GRAAVTFDF,nd,0/6
GFKLNSYGIS,VIYSDGRRTFYMDSVK,GQLAGTFDS,28 nM,6/6
GFTVNSYGIS,VIYSDGRRTAYGDSVK,GKAAGVFDN,nd,0/6
GFTLNVYGIS,VIYSDGRRTFYGDSVK,GRAAVTFDQ,nd,0/6
GFTLNSYGIS,VIYFDGRRTFYGDSVK,GQAAATFDS,nd,0/6
KFELNSYGIS,VIYSDGRRTFYGDSVK,GKTAGTFDS,nd,0/6
GMTLNSYGIS,VIYADGRRTFYGDSVK,GRAAGTFDS,4.6 nM,12/12
GFSLNSYGIS,VIYSDGRRTFYSDSVK,GHAAGTFDS,990 pM,6/6
GFGLNEYGIS,VIYSDGRRTFYSDSVK,GKAAGTFDS,1.6 nM,1/6
GFQLNSYGIS,VIYSDGKRTFYGDSVK,GRTAGTFDS,13 nM,6/6
GFELNSYGIS,VIYSDGRRTFYADSVK,GRTAGTFDQ,1.1 nM,6/6
GFSLNEYGIS,VIYSDGRRTFYGDSVK,GRTAGTFDT,3.6 nM,6/6
GFNLNSYGIS,VIYSDGRRTFYADSVK,GQTAGTFDS,1.2 nM,6/6
GITLNMYGIS,VIYSDGRRTFYQDSVK,GRAAGTFDS,130 pM,1/6
GFNLNSYGIS,VIYSDGRRTFYGDSVK,GITAGTFDS,22 nM,1/6
GFTLNSYGIS,VIYADGRRTFYGDSVK,GQTAGTFDS,230 pM,6/6
GFQLNTYGIS,VIYSDGRRTFYGDSVK,GRTAGTFDS,9.9 nM,4/6
GFTLNSYGIS,VIYSDGRRTFYEDSVK,GRAAGHFDS,nd,0/6
GFDLNAYGIS,VIYSDGRRTFYGDSVK,GRTAGTFDS,2.4 nM,6/6
GFTLNSYGIS,VIYSDGRRTFYTDSVK,GKQAGTFDS,6.5 nM,6/6
YFTLNDYGIS,VIYSDGRRTFYIDSVK,GRAAGTFDS,75 nM,1/6
GFSLNSYGIS,VIYADGRRTFYGDSVK,GVAAGTFDS,690 pM,6/6
GFTLNSYGIS,VIYSDGRRTSYIDSVK,GRAAGTADS,nd,0/6
GFTTDSYGIS,VIYSDGRRTFYGDSVK,KRAAGTALS,nd,0/6
GFQLNEYGIS,VIYSDGRRTFYGDSVK,GRMAGTFIS,nd,0/6
GFDLNDYGIS,VIYSDGRRTFYGDQVK,GRTAGTFDS,1.8 nM,6/6
GFSLNSYGIS,VIYSDGRRTFYDDSVK,GHLAGTFDS,2.3 nM,6/6
GFTLNDYGIS,VIYSDGRRTWYGDSVK,GRAAGTFTS,nd,0/6
KFSLNSYGIS,VIYSDGRRTFYGDSVK,GRTAGTFDD,6.1 nM,6/6
GFDLNSYGIS,VIYSDGRREFYGDSVK,GRASGTFDS,nd,0/6
GFDLNSYGIS,VIYSDGRRTFYIDSVK,GAAAGTFDS,5.1 nM,6/6
GETLNEYGIS,VIYSDGMRTFYGDSVK,GRAAGTFDS,nd,0/6
GFTLNSYGIS,VIYSDGRRTFYGDSVK,VRAAGTFDS,nd,0/6
GFTLNSYGIS,VIYSDGRRTFYIDSVK,GKAAGTFIS,nd,0/6
GFSLNSYGIS,VIYSDGRRTFYADSVK,GSVAGTFDS,2.9 nM,6/6
GFTLNSYGIS,VIYSDGRRTFYVDSVK,GKAAGTFDV,5.6 nM,1/6
KFSLNSYGIS,VIYSDGRRTFYADSVK,GRNAGTFDS,170 pM,1/6
GFTLNEYGIS,VIYSDGRRTFYQDSVK,GRFAGTFDI,19 nM,6/6
GFELNSYGIS,VIYSDGRRTFYADDVK,GEAAGTFDS,1.3 nM,6/6
HFNLNSYGIS,VIYSDGRRTFYIDSVK,GRQAGTFDS,190 nM,3/6
GFSLNAYGIS,VIYSDGRRTFYGDSVK,GRTAGTFDA,5.1 nM,6/6
GFTLNSYGIS,VIYSDGVRTFYGDSVK,GRVAGTFDK,15 nM,6/6
GFTLDSYGIS,VIYSDGRRTFYGDSVK,GHAAGTFDS,46 nM,4/6
GFSLNSYGIS,VIYSDGRRTFYGDSVK,GRYAGTFDS,10 nM,6/6
GEALNSYGIS,VIYSDGRRTFYGDSVK,GRAVGTFDS,nd,0/6
GFTLNSYGIS,VIYSDTTRTFYSDSVK,GRWGGTFDA,nd,0/6
GFTLNSYGIS,VIYSDGRRTFYADSVK,HRAAGTFDS,130 nM,6/6
GFDLNSYGIS,VIYSDGKRTFYADSVK,GRTAGTFDS,280 pM,6/6
GFVLNSYGIS,VIYSDGRRTFYADSVK,GREAGTFDS,2.0 nM,6/6

Extract of 7 entries:

CDR-H1,CDR-H2,CDR-H3,apparent Kd,seen in
GEALNSYGIS,VIYSDGRRTFYGDSVK,GRAVGTFDS,nd,0/6
GFTLNEYGIS,VIYSDGRRTFYQDSVK,GRFAGTFDI,19 nM,6/6
YFTLNDYGIS,VIYSDGRRTFYIDSVK,GRAAGTFDS,75 nM,1/6
GFDLNSYGIS,VIYSDGRREFYGDSVK,GRASGTFDS,nd,0/6
GFTLNSYGIS,VIYSDGRRTFYIDSVK,GKAAGTFIS,nd,0/6
GFTMNEYGIS,VIYSDGRRTFYGDSVK,GRAAGTFTS,nd,0/6
GFDLNSYGIS,VIYSDGRRTFYGDSVK,GRTAGTFDI,1.2 nM,6/6

Of ten entries with the parent sequence, four were seen in most replicates (averages 2.2 nM to 240 nM), three in one and three in none, so single entries are noisy.
In the paper, a design with two or fewer of six values counts as a poor binder.
Three control strains display no target. For all heavy chain designs, 1% of the pairings with them gave a signal, with a median of 120 nM and one signal in twenty below 7.0 nM, so weak values seen in few replicates may be background.
Values of this round are not directly comparable with the first-round values of the same sequences.
A sequence that the file lists under several names has all its replicates pooled.